Experimental data: patent US20090202660A1, “Agents and Methods for Osteogenic Oxysterols Inhibition of Oxidative Stress on Osteogenic Cellular Differentiation” (The Regents of the University of California, priority 2005, published 2009)

Tested on: M2 cells
Experiment: Oxidative stress (XXO or MM-LDL) inhibition of osteoblastic differentiation of M2 cells
Format: cell-based, mouse
Settings: pretreatment 48 hours, 250 ng/ml; data not shown

B1: rhBMP2: recombinant human BMP2 from R&D Systems (protein, UniProt P12643 283-396, looked up)
Bone morphogenetic protein 2: QAKHKQRKRLKSSCKRHPLYVDFSDVGWNDWIVAPPGYHAFYCHGECPFPLADHLNSTNHAIVQTLVNSVNSKIPKACCVPTELSAISMLYLDENEKVVLKNYQDMVVEGCGCR
  protection of osteogenic differentiation from oxidative stress by pretreatment: protected from the adverse effects of oxidative stress
